Source: patent publication US20240277663A1, “PHARMACEUTICAL KITS AND USES THEREOF FOR TREATING COLORECTAL CANCER” (priority 2023, published 2024)

Molecular target: T1, HDAC10 (Homo sapiens, UniProt Q969S8)
T1 sequence (Q969S8 1-669): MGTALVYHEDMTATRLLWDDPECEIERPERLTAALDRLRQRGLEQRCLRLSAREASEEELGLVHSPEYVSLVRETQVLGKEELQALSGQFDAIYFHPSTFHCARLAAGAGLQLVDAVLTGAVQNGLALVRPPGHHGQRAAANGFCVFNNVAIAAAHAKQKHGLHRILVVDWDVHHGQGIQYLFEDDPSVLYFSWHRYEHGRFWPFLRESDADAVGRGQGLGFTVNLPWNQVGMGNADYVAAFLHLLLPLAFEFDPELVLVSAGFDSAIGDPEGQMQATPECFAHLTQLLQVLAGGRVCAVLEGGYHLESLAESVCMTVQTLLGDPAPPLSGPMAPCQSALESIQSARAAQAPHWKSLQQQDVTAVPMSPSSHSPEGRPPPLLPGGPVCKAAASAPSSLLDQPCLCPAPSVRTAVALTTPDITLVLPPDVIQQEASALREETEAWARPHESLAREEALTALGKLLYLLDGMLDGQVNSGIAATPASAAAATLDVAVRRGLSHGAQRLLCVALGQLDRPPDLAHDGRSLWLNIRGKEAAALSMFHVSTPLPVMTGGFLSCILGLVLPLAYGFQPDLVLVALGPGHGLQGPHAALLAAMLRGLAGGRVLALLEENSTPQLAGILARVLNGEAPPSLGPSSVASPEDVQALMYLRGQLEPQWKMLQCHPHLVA
Test: HDAC enzymatic activity assay (fluorogenic, Reaction Biology)
Settings: read-out: HDAC enzymatic activity IC50, HDAC10; HDAC Class IIb; 10-dose IC50 format

O=C(CCCCCCC(=O)Nc1ccccc1)NO [Vorinostat]
IC50: 284 nM
